{"sequences": {"note": "Protein sequences, listed by entry. Tags and fused reporters are not part of them.", "UniProt P00591, whole entry": "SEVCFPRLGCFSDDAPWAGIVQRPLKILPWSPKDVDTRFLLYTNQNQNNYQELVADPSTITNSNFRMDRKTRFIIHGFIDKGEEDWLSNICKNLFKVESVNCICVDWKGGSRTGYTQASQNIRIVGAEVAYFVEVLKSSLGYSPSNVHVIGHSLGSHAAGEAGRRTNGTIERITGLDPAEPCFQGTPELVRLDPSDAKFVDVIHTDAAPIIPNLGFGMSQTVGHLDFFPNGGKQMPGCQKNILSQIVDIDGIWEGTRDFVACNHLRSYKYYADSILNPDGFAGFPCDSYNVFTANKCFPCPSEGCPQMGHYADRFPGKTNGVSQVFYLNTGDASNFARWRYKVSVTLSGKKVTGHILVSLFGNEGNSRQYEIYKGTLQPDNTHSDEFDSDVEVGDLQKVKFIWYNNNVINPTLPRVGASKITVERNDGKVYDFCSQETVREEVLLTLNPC"}, "source": "patent US20050143441A1", "about": "“Novel medical combination treatment of obesity involving 4,5-dihydro-1H-pyrazole derivatives having CB1-antagonistic activity” (priority 2003, published 2005)", "origin": "cited, not measured here", "target": "porcine pancrease lipase (Sus scrofa, UniProt P00591)", "data": [{"smiles": "CCCCC/C=C\\C/C=C\\C[C@@H](C[C@@H]1OC(=O)[C@H]1CCCCCC)OC(=O)[C@H](CC(C)C)NC=O", "values": [{"measurement": "IC50 for inhibition of hydrolysis of triolein by porcine pancrease lipase", "value": 0.07, "unit": "µg/mL"}]}]}
